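Each compound was tested at five concentrations against cells in 96-well plates for 48 hours. GI50 = concentration required for 50% inhibition of growth. Definition used: TGI = concentration required for complete inhibition of growth.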
Legend:
Test in all cases: inhibition of tumour cell growth, NCI panel, 48 h
SNB-19 CNS = test system: SNB-19 CNS
MDA-MB-435 = test system: MDA-MB-435
SW-620 colon = test system: SW-620 colon
OVCAR-4 ovarian = test system: OVCAR-4 ovarian
HT29 colon = test system: HT29 colon
RPMI-8226 leukemia = test system: RPMI-8226 leukemia
SK-MEL-5 melanoma = test system: SK-MEL-5 melanoma
NCI-H522 lung = test system: NCI-H522 lung
MALME-3M melanoma = test system: MALME-3M melanoma
BT-549 breast = test system: BT-549 breast
A549 NSCLC = test system: A549 NSCLC
SK-OV-3 ovarian = test system: SK-OV-3 ovarian
NCI-H322M lung = test system: NCI-H322M lung
LOX IMVI melanoma = test system: LOX IMVI melanoma
SF-295 CNS = test system: SF-295 CNS
NCI-H226 lung = test system: NCI-H226 lung
UACC-257 melanoma = test system: UACC-257 melanoma
TK-10 renal = test system: TK-10 renal
OVCAR-5 ovarian = test system: OVCAR-5 ovarian
MDA-MB-231 breast = test system: MDA-MB-231 breast
UO-31 renal = test system: UO-31 renal
SNB-75 CNS = test system: SNB-75 CNS
IGROV1 ovarian = test system: IGROV1 ovarian
NCI/ADR-RES ovarian = test system: NCI/ADR-RES ovarian
HCC-2998 colon = test system: HCC-2998 colon
UACC-62 melanoma = test system: UACC-62 melanoma
SF-268 CNS = test system: SF-268 CNS
OVCAR-8 ovarian = test system: OVCAR-8 ovarian
SK-MEL-28 melanoma = test system: SK-MEL-28 melanoma
786-0 renal = test system: 786-0 renal
HS 578T breast = test system: HS 578T breast
CAKI-1 renal = test system: CAKI-1 renal
HCT-15 colon = test system: HCT-15 colon
ACHN renal = test system: ACHN renal
SN12C renal = test system: SN12C renal
NCI-H460 lung = test system: NCI-H460 lung
COLO 205 colon = test system: COLO 205 colon
NCI-H23 lung = test system: NCI-H23 lung
DU-145 prostate = test system: DU-145 prostate
CCRF-CEM leukemia = test system: CCRF-CEM leukemia
HL-60(TB) leukemia = test system: HL-60(TB) leukemia
K-562 leukemia = test system: K-562 leukemia
M14 melanoma = test system: M14 melanoma
MCF7 breast = test system: MCF7 breast
SF-539 CNS = test system: SF-539 CNS
U251 CNS = test system: U251 CNS
T-47D breast = test system: T-47D breast
MOLT-4 leukemia = test system: MOLT-4 leukemia
SK-MEL-2 melanoma = test system: SK-MEL-2 melanoma
HCT-116 colon = test system: HCT-116 colon
HOP-92 NSCLC = test system: HOP-92 NSCLC
OVCAR-3 ovarian = test system: OVCAR-3 ovarian
EKVX NSCLC = test system: EKVX NSCLC
HOP-62 NSCLC = test system: HOP-62 NSCLC
KM12 colon = test system: KM12 colon
A498 renal = test system: A498 renal
SR leukemia = test system: SR leukemia

For `CCCCCCCCCCCCCNCC(C)O.O=[N+]([O-])c1cc([N+](=O)[O-])c(O)c([N+](=O)[O-])c1` (stereo not drawn), the GI50 (SNB-19 CNS) was 15.6 µM, the TGI (SNB-19 CNS) was 35.8 µM and the GI50 (MDA-MB-435) was 11.2 µM. It also gave a TGI (MDA-MB-435) of 25.1 µM, a GI50 (SW-620 colon) of 15.6 µM and a TGI (SW-620 colon) of 31.3 µM. The GI50 (OVCAR-4 ovarian) was 13.9 µM, the TGI (OVCAR-4 ovarian) was 28.7 µM and the GI50 (HT29 colon) was 2.46 µM. It also gave a TGI (HT29 colon) of 13.9 µM, a GI50 (RPMI-8226 leukemia) of 2.85 µM and a TGI (RPMI-8226 leukemia) of 18.7 µM. The GI50 (SK-MEL-5 melanoma) was 8.11 µM, the TGI (SK-MEL-5 melanoma) was 21.2 µM and the GI50 (NCI-H522 lung) was 11.9 µM. For the same molecule, the TGI (NCI-H522 lung) was 25.2 µM, the GI50 (MALME-3M melanoma) was 11.6 µM and the TGI (MALME-3M melanoma) was 26.5 µM. For the same molecule, the GI50 (BT-549 breast) was 13.1 µM, the TGI (BT-549 breast) was 28 µM and the GI50 (A549 NSCLC) was 14.9 µM. It also gave a TGI (A549 NSCLC) of 29.6 µM, a GI50 (SK-OV-3 ovarian) of 18.4 µM and a TGI (SK-OV-3 ovarian) of 36.3 µM. For the same molecule, the GI50 (NCI-H322M lung) was 15.6 µM, the TGI (NCI-H322M lung) was 29.6 µM and the GI50 (LOX IMVI melanoma) was 7.86 µM. The TGI (LOX IMVI melanoma) was 24.5 µM, the GI50 (SF-295 CNS) was 12.4 µM and the TGI (SF-295 CNS) was 28.7 µM. The GI50 (NCI-H226 lung) was 14.1 µM, the TGI (NCI-H226 lung) was 30.3 µM and the GI50 (UACC-257 melanoma) was 7.24 µM. It also gave a TGI (UACC-257 melanoma) of 20.9 µM, a GI50 (TK-10 renal) of 7.19 µM and a TGI (TK-10 renal) of 21 µM. It also gave a GI50 (OVCAR-5 ovarian) of 16.6 µM, a TGI (OVCAR-5 ovarian) of 43.4 µM and a GI50 (MDA-MB-231 breast) of 12.1 µM. It also gave a TGI (MDA-MB-231 breast) of 25.9 µM, a GI50 (UO-31 renal) of 10.9 µM and a TGI (UO-31 renal) of 22.9 µM. The GI50 (SNB-75 CNS) was 13.3 µM, the TGI (SNB-75 CNS) was 27.9 µM and the GI50 (IGROV1 ovarian) was 12 µM. It also gave a TGI (IGROV1 ovarian) of 24.3 µM, a GI50 (NCI/ADR-RES ovarian) of 14.1 µM and a TGI (NCI/ADR-RES ovarian) of 33.2 µM. For the same molecule, the GI50 (HCC-2998 colon) was 3.06 µM, the TGI (HCC-2998 colon) was 8.1 µM and the GI50 (UACC-62 melanoma) was 13.9 µM. It also gave a TGI (UACC-62 melanoma) of 27.3 µM, a GI50 (SF-268 CNS) of 13.7 µM and a TGI (SF-268 CNS) of 28 µM. The GI50 (OVCAR-8 ovarian) was 4.19 µM, the TGI (OVCAR-8 ovarian) was 19.2 µM and the GI50 (SK-MEL-28 melanoma) was 13.6 µM. The TGI (SK-MEL-28 melanoma) was 27.5 µM, the GI50 (786-0 renal) was 19.4 µM and the TGI (786-0 renal) was 86.9 µM. It also gave a GI50 (HS 578T breast) of 18.4 µM, a TGI (HS 578T breast) of 46.5 µM and a GI50 (CAKI-1 renal) of 10.2 µM. For the same molecule, the TGI (CAKI-1 renal) was 23.7 µM, the GI50 (HCT-15 colon) was 12.8 µM and the TGI (HCT-15 colon) was 34 µM. For the same molecule, the GI50 (ACHN renal) was 14.2 µM, the TGI (ACHN renal) was 30.1 µM and the GI50 (SN12C renal) was 14.2 µM. The TGI (SN12C renal) was 28.7 µM, the GI50 (NCI-H460 lung) was 7.33 µM and the TGI (NCI-H460 lung) was 22.8 µM. For the same molecule, the GI50 (COLO 205 colon) was 1.25 µM, the TGI (COLO 205 colon) was 36.6 µM and the GI50 (NCI-H23 lung) was 15.4 µM. For the same molecule, the TGI (NCI-H23 lung) was 33.1 µM, the GI50 (DU-145 prostate) was 15.3 µM and the TGI (DU-145 prostate) was 29.2 µM. For the same molecule, the GI50 (CCRF-CEM leukemia) was 4.88 µM, the TGI (CCRF-CEM leukemia) was 23.7 µM and the TGI (HL-60(TB) leukemia) was 35.8 µM. It also gave a GI50 (K-562 leukemia) of 4.64 µM, a TGI (K-562 leukemia) of 22.4 µM and a GI50 (M14 melanoma) of 11 µM. The TGI (M14 melanoma) was 28.2 µM, the GI50 (MCF7 breast) was 11.6 µM and the TGI (MCF7 breast) was 26.5 µM. For the same molecule, the GI50 (SF-539 CNS) was 13.3 µM, the TGI (SF-539 CNS) was 27.4 µM and the GI50 (U251 CNS) was 13.1 µM. The TGI (U251 CNS) was 28.2 µM, the GI50 (T-47D breast) was 17.9 µM and the TGI (T-47D breast) was 86.7 µM. The GI50 (MOLT-4 leukemia) was 12.8 µM, the TGI (MOLT-4 leukemia) was 32.8 µM and the GI50 (SK-MEL-2 melanoma) was 16 µM. It also gave a TGI (SK-MEL-2 melanoma) of 30.5 µM, a GI50 (HCT-116 colon) of 13.5 µM and a TGI (HCT-116 colon) of 39.3 µM. It also gave a GI50 (HOP-92 NSCLC) of 2.52 µM, a TGI (HOP-92 NSCLC) of 22.1 µM and a GI50 (OVCAR-3 ovarian) of 13.2 µM. It also gave a TGI (OVCAR-3 ovarian) of 29.8 µM, a GI50 (EKVX NSCLC) of 10.2 µM and a TGI (EKVX NSCLC) of 23 µM. It also gave a GI50 (HOP-62 NSCLC) of 22.8 µM, a TGI (HOP-62 NSCLC) of 46.4 µM and a GI50 (KM12 colon) of 14.9 µM. The TGI (KM12 colon) was 30.6 µM, the GI50 (A498 renal) was 15.1 µM and the TGI (A498 renal) was 28.9 µM. The GI50 (SR leukemia) was 3.09 µM and the TGI (SR leukemia) was 14.1 µM.

Source: PubChem BioAssay (NCI)
